Tested on: B16F10 melanoma tumor
Test: In vivo anticancer efficacy, subcutaneous B16F10 melanoma tumor model
Design: species or system BALB/c nude mice
Details: Data 3
Method: Tumor-bearing mice were established by subcutaneously injecting a suspension of 5 × 10^5 B16F10 cells per mouse into the front flank of each nude mouse. When tumor volume reached 50−70 mm^3, the animals were randomly divided into five groups (n = 5). The mice were administered different compounds suspended in PBS via the tail vein every 3 days for a total of four times.
The mice underwent four treatment courses on day 0, day 3, day 6, and day 9. Tumor size and body weight were measured every day. Tumor volume was calculated via the following formula: V = 1/2 × (minor axis) × (major axis)[2].
After 12 days, the mice were sacrificed and dissected to obtain tumor tissues and main organs, including heart, liver, spleen, lung, and kidney. Subsequently, all tissues were fixed in a 4% paraformaldehyde solution, routinely paraffin-embedded and sectioned, and then stained with hematoxylin and eosin, as well as using TdT-mediated dUTP nick-end labeling (TUNEL) for subsequent pathological analysis. TUNEL-positive cells appeared fluorescent green, representing the apoptosis of tumor cells (nuclei were fluorescent blue, stained with DAPI).
13. In vivo anticancer efficacy […]
13.2 Calculation of the tumor growth inhibition values (TGI)
Tumor growth inhibition values (TGI) were calculated using the following formula: TGI (%) = (1 − RTVtreatment/
RTVcontrol)*100. […]

COc1cccc2c1C(=O)c1c(O)c3c(c(O)c1C2=O)C[C@@](O)(C(=O)CO)C[C@@H]3O[C@H]1C[C@H](N)[C@H](O)[C@H](C)O1 [Dox, doxorubicin]
tumor growth inhibition values (TGI %): 64.5%

Reference: publication PMC10987521, “An all-in-one tetrazine reagent for cysteine-selective labeling and bioorthogonal activable prodrug construction” (Nature Communications, 2024)
